Assay: Thermal stability of benzalkonium, free chloride vs bound to ion exchange material
Assay type: physicochemical
Conditions: free chloride salt
Text: In addition, binding of a cationic species to the backbone of the ion exchange material can provide one or both of at least two benefits. These include, but are not limited to: 1.

In the case of “alkyldimethyl(phenylmethyl) quaternary ammonium chloride [benzalkonium chloride]”, the degradation temperature is reported as “around 180 °C”.

Reference: patent publication US20200269668A1, “Biologically Efficacious Compositions, Articles of Manufacture And Processes For Producing And/Or Using Same” (priority 2011, published 2020)
